ChEMBL document CHEMBL3600346, “Synthesis and carbonic anhydrase inhibitory properties of novel uracil derivatives” (Bioorg Med Chem Lett, 2015)
Activity calls are given as the source filed them. The rule behind the calls is not given here.

Protein sequences, listed by entry. Tags and fused reporters are not part of them. Lines headed by an entry give the natural chain unless they say otherwise; changes in a name come on top.
UniProt P00915: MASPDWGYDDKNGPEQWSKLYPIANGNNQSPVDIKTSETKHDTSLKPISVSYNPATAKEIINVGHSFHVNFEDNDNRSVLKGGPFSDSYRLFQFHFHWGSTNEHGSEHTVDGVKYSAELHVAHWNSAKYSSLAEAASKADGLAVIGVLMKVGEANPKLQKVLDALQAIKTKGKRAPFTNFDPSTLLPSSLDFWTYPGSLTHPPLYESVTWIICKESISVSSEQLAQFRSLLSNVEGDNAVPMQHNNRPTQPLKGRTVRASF

Biological target: Carbonic anhydrase 1 (Homo sapiens, UniProt P00915)
Experiment: Competitive inhibition of human erythrocytes CA1 using 4-nitrophenylacetate as substrate by Lineweaver-Burk plot analysis

inhibition mode: Active
Compound: O=c1[nH]cc(CO)c(=O)[nH]1
